Laboratory results published in article PMC8914349 (Molecular cancer therapeutics, 2020).

Assay: Single administration plasma pharmacokinetics in tumor-bearing mice
Assay type: in vivo
Conditions: mouse plasma
How it was run: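 Nude mice bearing M1 or M5 s.c. xenografts received a single oral dose of trametinib 5.0 mg/Kg, sapanisertib 2.0 mg/Kg, or both. Plasma and tumor were taken from two mice per group per timepoint over 2–48 h. Validated LC-MS/MS was used; sapanisertib was read by MRM m/z 310.2→268.1, calibrated 1–1000 ng/mL. Noncompartmental analysis for destructive sampling gave Cmax, T1/2 and AUC to last timepoint, with AUC error by Bailer's method.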

change in trametinib plasma AUC in the presence of sapanisertib relative to trametinib alone: significant increase
SMILES: CC(=O)Nc1cccc(-n2c(=O)n(C3CC3)c(=O)c3c(Nc4ccc(I)cc4F)n(C)c(=O)c(C)c32)c1 [trametinib]
